How the values were obtained:
PHA-stimulated PBMCs = test: Cellular cytotoxicity, microscopic evaluation and MTS assay; type: cell-based, human; settings: 48 h, MTS, read-out: Toxicity CC50 PMBCs
Excerpt: Buffy coat preparations from healthy donors were obtained from the Blood Bank in Leuven, Belgium. For the chemokine binding studies, peripheral blood mononuclear cells (PBMCs) activated with phytohemagglutinin (PHA; Sigma, Belgium) were used. Human T-lymphocytic SUP-T1 cells and TZM-bl cells were obtained from the American Type Culture Collection (Rockville, MD) and maintained in RPMI-1640 supplemented with 10% foetal bovine serum (FBS). Human glioblastoma U87.MG and U87.CD4 cells were kindly provided by Dr. D. Littman and used to generate cells expressing CXCR4 or CCR5 [48]. The fluorescent chemokines CXCL12^AF647 and CCL5^AF647 were purchased from Almac. […]
Cytotoxicity of the compounds was evaluated after 48 h of incubation at 37 °C in PHA-stimulated PBMCs (5 × 10^5 cells per well in culture medium). […] Cytotoxicity was evaluated microscopically, and in addition, the cell viability was assessed using the colorimetric CellTiter 96 AQueous One Solution Cell Proliferation Assay (Promega, Fitchburg, WI, USA), which is based on the reduction of the tetrazolium salt MTS [3-(4,5-dimethylthiazol-2-yl)-5-(3-carboxymethoxyphenyl)-2-(4-sulfophenyl)-2H-tetrazolium] to formazan by metabolically active cells. Absorbance at 490 nm was measured with the Versa-Max ELISA microplate reader (Molecular Devices, Sunnyvale, CA, USA). […]

The chains behind the UniProt entries cited, without tags or fusion partners.
UniProt P51681, whole entry: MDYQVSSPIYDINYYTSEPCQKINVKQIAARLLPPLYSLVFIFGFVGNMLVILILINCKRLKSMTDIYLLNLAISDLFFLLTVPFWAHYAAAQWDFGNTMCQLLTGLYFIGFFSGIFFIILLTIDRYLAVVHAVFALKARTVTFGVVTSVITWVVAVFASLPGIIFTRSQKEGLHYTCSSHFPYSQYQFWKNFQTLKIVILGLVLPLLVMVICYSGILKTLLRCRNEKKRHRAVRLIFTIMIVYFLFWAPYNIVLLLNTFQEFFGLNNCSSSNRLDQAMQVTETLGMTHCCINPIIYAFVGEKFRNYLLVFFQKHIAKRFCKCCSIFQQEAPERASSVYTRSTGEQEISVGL

CCR5 [1] = biological target: T1, CCR5 (Homo sapiens, UniProt P51681); test: CCL5^AF647 chemokine binding inhibition assay in PBMCs; settings: AF647-labelled CCL5 in PBMCs; mean ± SEM; read-out: Competition Binding Assay IC50 CCL5
T1 construct: endogenous in cells
Method: Human PBMCs were washed once with assay buffer (Hanks’ balanced salt solution with 20 mM HEPES buffer and 0.2% bovine serum albumin, pH 7.4) and then incubated for 15 min at room temperature with the sample diluted in assay buffer at the indicated concentrations. Subsequently, CXCL12^AF647 (25 ng/mL) or CCL5^AF647 (50 ng/mL) was added to the compound-incubated cells. The cells were incubated for 30 min at room temperature. Thereafter, the cells were washed twice in assay buffer, fixed in 1% paraformaldehyde in PBS, and analysed on the FL4 channel of a FACSCalibur flow cytometer equipped with a 635 nm red diode laser (Becton Dickinson, San Jose, CA, USA). The percentage of inhibition of CXCL12^AF647 or CCL5^AF647 binding was calculated according to the formula: [1 − ((MFI − MFINC)/(MFIPC − MFINC))] × 100, where MFI is the mean fluorescence intensity of the cells incubated with CXCL12^AF647 or CCL5^AF647 in the presence of the inhibitor, MFINC is the mean fluorescence intensity measured in the negative control (i.e., autofluorescence of unlabelled cells), and MFIPC is the mean fluorescence intensity of the positive control (i.e., cells exposed to CXCL12^AF647 or CCL5^AF647 alone).
Binding affinity and selectivity towards CXCR4 were further evaluated through competition binding assays using natural chemokine ligands, tagged with Alexa Fluor 647, as previously reported. […]

CCR5 [2] = biological target: T1, CCR5; test: CCL3L1-induced intracellular calcium mobilisation in CCR5-transfected U87 cells (FLIPR); type: cell-based; settings: mean ± SEM, read-out: Ca^2+ Signalling Assay IC50 CCL3L1
Method: CXCR4- or CCR5-positive U87 glioblastoma/astrocytoma cells were loaded with the fluorescent calcium indicator Fluo-3 acetoxymethyl (Molecular Probes) at 4 µM in the assay buffer (Hanks’ balanced salt solution with 20 mM HEPES buffer and 0.2% bovine serum albumin, pH 7.4) for 45 min at room temperature. After thorough washing with the assay buffer, cells were pre-incubated for 10 min at 37 °C in the same buffer with the compounds of interest. The intracellular calcium mobilisation in response to CXCL12 (CXCR4 chemokine ligand) or CCL3L1 (CCR5 chemokine ligand) was then measured at 37 °C by monitoring the fluorescence as a function of time simultaneously in all the wells by using a fluorometric imaging plate reader (FLIPR; Molecular Devices, Sunnyvale, CA, USA).
The potency of the different metal complexes was investigated in a functional downstream receptor signalling assay. The inhibitory effect of the tested compounds was examined by Ca^2+ mobilisation studies with the natural ligands CXCL12 and CCL3L1 for the chemokine receptors CXCR4 and CCR5, respectively. The Ca^2+ ions released from the endoplasmic reticulum were measured over time in CXCR4- or CCR5-transfected U87 glioblastoma cells via their specific interaction with the fluorescent Ca^2+ indicator Fluo-3 [63].

## Maraviroc [reference compound]
PHA-stimulated PBMCs
  CC50: ≥ 100 µM
CCR5 [1]
  IC50: 0.0103 ± 0.0035 µM
CCR5 [2]
  IC50: 0.0031 ± 0.0006 µM

Source: paper PMC11360128, “Rigid Macrocycle Metal Complexes as CXCR4 Chemokine Receptor Antagonists: Influence of Ring Size” (Pharmaceutics, 2024)
